The text below walks through data of patent US10117912B2 (priority 2013, dated 2018).

This data set concerns MDCKII-wt monolayer membrane.

For `O=C1NC(c2ccccc2)(c2ccccc2)C(=O)N1COP(=O)(O)O` [fosphenytoin, Fosphenytoin disodium], the “conversion of prodrug to drug by endogenous enzyme” value (fosphenytoin without added enzyme, after 3 hr) is reported as “less than 30%”. In addition, the “appearance of prodrug on the basal side” value (fosphenytoin without enzyme) is “did not appear on the basal side”.

Regarding `O=C1NC(=O)C(c2ccccc2)(c2ccccc2)N1` [phenytoin], the “CLd, membrane's clearance (permeability-area product)” value (phenytoin saturated solution, no enzyme, pH 7.4, 32° C.) was determined as 0.0538 ± 0.0075 mL/h.
